Each structure is given as a SMILES string. The entries are a selection whose mix differs from that of the whole data set.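 Single-concentration screen, 48 h exposure, 96-well plates. Endpoint: percent growth. Below 10 = active.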 The source made the active and inactive calls.

Holding throughout (test): NCI-60 one-dose screen, 48 h (100 = growth as untreated, 0 = no growth, -100 = all killed)
Holding throughout (settings): 10 µM unless noted

The subject of test [1] is NCI/ADR-RES ovarian.
In test [2] the test system is T-47D breast.
The subject of test [3] is BT-549 breast.
Test [4] has as its system MDA-MB-435 melanoma.
Test [5] concerns SW-620 colon.
In test [6] the test system is MCF7 breast.
Test [7] concerns HCT-116 colon.
The subject of test [8] is KM12 colon.
Test [9] relates to HCC-2998 colon.

With `O=[As](O)(c1cccs1)c1cccs1`, the growth was inactive: 98.6% in test [1]; inactive: 90.8% in test [2]; inactive: 74% in test [3]; inactive: 102% in test [4]; inactive: 104% in test [5]; inactive: 94.9% in test [6]. The values for the growth in test [7] and in test [8] were inactive: 93.2% and inactive: 115%, respectively.

`O=C(CBr)c1ccc([N+](=O)[O-])cc1`: the growth in test [1] was inactive: 110%; in test [2], inactive: 101%; in test [4] it was inactive: 103%; in test [5], inactive: 105%; in test [6], inactive: 84.8%; in test [7], inactive: 100%. In addition, the growth is inactive: 107% in test [9] and inactive: 106% in [8].

On to `Nc1nnc(N)nn1`, for which the growth in [2] is inactive: 109%; in [3] it was inactive: 104%; in test [4], inactive: 98.1%; in test [5] it was inactive: 108%; in [6] it was inactive: 101%; in test [7], inactive: 112%. For the same molecule, the results for the growth in [9] and in test [8] were inactive: 104% and inactive: 109%, respectively.

With `CCCC1OP(=O)(Nc2ccccc2)OCC1CC` (centres undefined), the growth in [1] is inactive: 104%; in test [2], inactive: 109%; in test [3], inactive: 103%; in test [4], inactive: 110%; in test [5], inactive: 102%; in test [6], inactive: 101%. Moreover, the growth in test [7] was inactive: 102%; in test [8], inactive: 109%.

`CCOC(=O)CCNCCSP(=O)(O)O`: the growth was inactive: 97.3% in test [2]; inactive: 101% in [3]; inactive: 105% in test [4]; inactive: 102% in test [5]; inactive: 96.4% in [6]; inactive: 101% in test [7]. Further, the figures for the growth in [9] and in test [8] were inactive: 107% and inactive: 98.9%, respectively.

`COP(=O)(OC)N(CCCl)CCCl`: the growth was inactive: 108% in test [1]; inactive: 107% in test [2]; inactive: 109% in test [3]; inactive: 104% in test [4]; inactive: 107% in [5]; inactive: 93.9% in test [6]. Besides, the growth is inactive: 112% in test [7] and inactive: 113% in test [8].

As for `CCN(CCCl)Cc1ccccc1`, the growth was inactive: 114% in test [1]; inactive: 95.9% in test [2]; inactive: 108% in test [4]; inactive: 104% in [5]; inactive: 90.3% in test [6]; inactive: 102% in test [7]. In addition, the growth in [9] is inactive: 112%; in test [8], inactive: 104%.

For the molecule `O=P(O)(NCCCO)N(CCCl)CCCl`, the growth in test [1] was inactive: 98.4%; in test [2] it was inactive: 98.6%; in test [4], inactive: 86.9%; in test [5], inactive: 107%; in test [6], inactive: 99.3%; in test [7] it was inactive: 101%. Further, the growth in test [9] is active: -21.9%; in test [8], inactive: 111%.

On to `O=C(O)c1ccccc1[As](=O)(O)O`, for which the growth in [1] was inactive: 136%; in test [2] it was inactive: 95.7%; in test [3], inactive: 93.9%; in test [4], inactive: 92.4%; in [5] it was inactive: 108%; in test [6], inactive: 128%. In addition, the growth was inactive: 102% in [7] and inactive: 101% in [8].

Take `O=C(C(=O)c1ccc([N+](=O)[O-])cc1[N+](=O)[O-])c1ccc([N+](=O)[O-])cc1[N+](=O)[O-]`: the growth is inactive: 97.2% in [1]; inactive: 86% in test [3]; inactive: 105% in [4]; inactive: 115% in test [5]; inactive: 79.7% in [6]; inactive: 86.8% in test [7]. Also, the growth in [9] is inactive: 108%; in [8] it was inactive: 103%.

On to `NCCSP(=O)(O)O`, for which the growth in [1] is inactive: 110%; in test [2] it was inactive: 109%; in test [4], inactive: 109%; in test [5], inactive: 101%; in [6], inactive: 112%; in test [7], inactive: 111%. Further, the growth in test [9] was inactive: 108%; in test [8] it was inactive: 109%.

`CCOP(=O)(Nc1ccc(C)cn1)OCC`: the growth in test [1] is inactive: 109%; in test [2], inactive: 99.9%; in [3] it was inactive: 117%; in test [4] it was inactive: 107%; in test [5], inactive: 102%; in [6] it was inactive: 88.6%. The growth in [7] is inactive: 86.6%; in test [8], inactive: 102%.

Take `COC(=O)C1=C(C)O[P@](=O)(OC)CCC1c1ccccc1` (some centres undefined): the growth in test [2] was inactive: 102%; in [3], inactive: 104%; in test [4] it was inactive: 113%; in test [5], inactive: 99.6%; in test [6], inactive: 91.7%; in test [7] it was inactive: 109%. Besides, the growth is inactive: 95.6% in test [9] and inactive: 111% in test [8].

These data come from PubChem BioAssay (NCI).
